How the values were obtained:
[1] = Solubility assays in water, PBS and serum; format: physicochemical
[2] = Thermogravimetric analysis (TGA); format: physicochemical; conditions: 5 °C min^−1, argon
Protocol: Thermogravimetric analyses were performed over a temperature range from room temperature to 500 °C in a thermogravimetric analyzer from Setaram Labsys EVO (France) with a weighing precision of ±0.01%. Each run was conducted at a heating rate of 5 °C min^−1, under a highly pure argon atmosphere purged at 50 mL min^−1, with a mass sample between 8 and 10 mg.

Solubility in PBS 37 °C [1]: 284 ± 17 µg/mL
Solubility in Serum 37 °C [1]: 334 ± 5 µg/mL
Solubility in Water 25 °C [1]: 247 ± 35 µg/mL
Solubility in Water 37 °C [1]: 386 ± 15 µg/mL
ΔTons, onset shifted to lower temperatures vs neat [Na][T4] [2]: ~ 50 °C
Substance: Choline Levothyroxine [[Ch][T4]]
